{"source": "patent US20250304700A1", "about": "“ANTI-BLOOD DENDRITIC CELL ANTIGEN 2 ANTIBODIES AND USES THEREOF” (Biogen MA Inc., priority 2012, published 2025)", "system": "bulk polyclonal human IgG", "assay": "Cross-interaction chromatography (CIC)", "type": "physicochemical", "excerpt": "Cross-interaction chromatography (CIC) is a high throughput method for preliminary assessment of the stickiness of mAb candidates (Jacobs et al., Pharm Res., 27 (1): 65-71 (2010)). In this method, bulk polyclonal human IgG is chemically coupled to an NHS-activated chromatography resin.", "data": [{"substance": "Herceptin: member of the control panel of mAbs in CIC [reference compound]", "values": [{"measurement": "Rt-Test", "setting": "IgG-derivatized column", "result": 9.5}, {"measurement": "K′", "setting": "higher K′ values may indicate lower solubility", "result": 0.011}, {"measurement": "Rt-Blank", "setting": "non-derivatized column", "result": 9.4}]}]}
